Values quoted from earlier work in patent publication US20150030685A1.
Read-outs that look alike come from different tables or passages of the source.

How the values were obtained:
[1] = 25° C. up to 80% relative humidity

Isomalt
Hygroscopicity [1]: low hygroscopicity

Maltitol
Solubility in water (g/100g) (25° C.): 63 g/100g
Solubility in water (g/100g) (40° C.): 72 g/100g
